This assay deals with Kappa-type opioid receptor (Cavia porcellus, UniProt P41144).

Amino acid sequences for entries named in this document (tags omitted). A change or cut given only in a name is not applied to a line headed by its entry.
UniProt P41144: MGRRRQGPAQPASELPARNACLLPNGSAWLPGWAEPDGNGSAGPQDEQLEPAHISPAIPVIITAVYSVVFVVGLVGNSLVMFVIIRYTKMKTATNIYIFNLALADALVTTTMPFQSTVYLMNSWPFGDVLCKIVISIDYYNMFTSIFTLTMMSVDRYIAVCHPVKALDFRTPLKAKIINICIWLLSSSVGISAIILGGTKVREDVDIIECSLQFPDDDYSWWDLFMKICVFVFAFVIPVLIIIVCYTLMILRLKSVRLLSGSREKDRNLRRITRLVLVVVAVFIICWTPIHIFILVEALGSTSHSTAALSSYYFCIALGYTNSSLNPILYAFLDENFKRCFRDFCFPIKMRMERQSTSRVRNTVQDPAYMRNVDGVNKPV

Molecules are shown by their SMILES.

Usually pEC50 stands for the EC50 on a negative log10 scale, so that one unit is a factor of ten. On to `CN(C(=O)Cc1ccccc1)[C@H]1CC[C@@]2(CCCO2)C[C@@H]1N1CCCC1`, for which the pEC50 was determined as 5.84.

The values above are taken from ChEMBL document CHEMBL5126672, “Discovery of κ Opioid Receptor (KOR)-Selective d-Tetrapeptides with Improved In Vivo Antinociceptive Effect after Peripheral Administration” (ACS Med Chem Lett, 2022).
